Assay results from patent publication US4902690A, “Pest controlling compositions” (The General Hospital Corporation, priority 1988, dated 1990).

Tested on: octopamine-sensitive adenylate cyclase (firefly lantern octopamine receptor)
Assay: Octopamine-sensitive adenylate cyclase activation, firefly light organ broken cell preparation
Format: biochemical, firefly (Photinus pyralis)
Details: Table 2, inhibitory properties at the octopamine receptor

SMILES: CN(CCCl)Cc1cc(Cl)c(N=C2NCCN2)c(Cl)c1
- Ki: 250 µM
